Here are results for 4 molecules from US8609610B2, “Inhibitors of the trypsin-like site of the proteasome and methods of use thereof” (Trustees of Dartmouth College, priority 2011, dated 2013).

Amino acid sequences for entries named in this document (tags omitted). A change or cut given only in a name is not applied to a line headed by its entry.
UniProt P20618: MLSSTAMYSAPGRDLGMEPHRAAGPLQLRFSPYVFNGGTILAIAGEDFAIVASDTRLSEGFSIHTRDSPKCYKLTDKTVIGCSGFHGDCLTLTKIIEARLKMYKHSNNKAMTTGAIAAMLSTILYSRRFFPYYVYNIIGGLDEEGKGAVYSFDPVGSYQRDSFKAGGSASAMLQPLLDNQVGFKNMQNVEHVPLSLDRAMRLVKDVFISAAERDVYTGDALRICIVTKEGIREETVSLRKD
UniProt P28074: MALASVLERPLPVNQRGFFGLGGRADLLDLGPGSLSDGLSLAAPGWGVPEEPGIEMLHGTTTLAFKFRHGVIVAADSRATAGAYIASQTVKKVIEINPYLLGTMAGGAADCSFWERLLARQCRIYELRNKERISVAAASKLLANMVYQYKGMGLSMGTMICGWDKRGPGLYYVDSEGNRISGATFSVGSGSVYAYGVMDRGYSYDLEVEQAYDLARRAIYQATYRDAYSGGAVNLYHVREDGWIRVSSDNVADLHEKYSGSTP

Experiment [1] addresses caspase-like site of 26S proteasomes (Oryctolagus cuniculus, UniProt A0A5F9DQW2). The experiment is described as follows: Inhibition of purified 26S proteasomes, substrate Ac-nLPnLD-amc. The format is biochemical, rabbit. To be noted: >>30 no inhibition at 30 μM, >30 inhibition between 10 and 50% at 30 μM, read-out: IC50 for sites in 26S proteasomes: Casp-L. The protocol:
26S proteasomes were purified from rabbit muscle using known methods (Screen, et al. (2010) supra). […] NOVEX Bis-Tris gels (12%, Invitrogen) with MOPS running buffer were used for electrophoretic separation of catalytic subunits modified by active-site probes. Inhibition of active sites inside cells was assayed using luminescent PROTEASOMEGLO assay (Promega; Moravec, et al. (2009) Anal. Biochem. 387:294-302) according to known methods (Britton, et al. (2009) supra).

In experiment [2] the test system is T1, chymotrypsin-like sites (β5) of proteasome in MM cells.
T1 construct: other: NCI-H929; bortezomib 100 nM 1 h; bortezomib 11 nM 1 h; bortezomib 3.7 nM 1 h; bortezomib 33 nM 1 h; other: NCI-H9
The experiment is described as follows: PROTEASOMEGLO assay of proteasome inhibition in MM cells. The format is cell-based. To be noted: read-out: IC50 for sites: Chym-L. The protocol:
(§1) Proteasome inhibition in MM cells was measured with luminogenic substrates using PROTEASOMEGLO assay (Promega). […] An aliquot of culture was pelleted and medium was removed and replaced with PBS. The resulting cell suspension was mixed with luminogenic substrates in the manufacturer-provided lysis/assay buffer. After 3 minutes mixing on an orbital shaker, the plate was incubated in the dark for additional 17 minutes, followed by the measurements of the luminescence, performed in triplicate for each substrate/data point. Data were analyzed as for purified proteasomes. […] Cells (1×10^6 per well of a 6-well plate) were incubated with the inhibitors for 4 hours at 37° C. and this was followed by a 2 hour incubation with 5 μM BODIPY-TMR-epoxomicin. Subsequently, the medium was removed and the cells were washed with PBS and harvested. […] The supernatant was collected and the protein concentration was determined by the Bradford assay, and used to normalize gel loading. The samples were analysed by SDS-PAGE and fluorescent densitometry as described for competition experiment in cell lysates. IC50 values were calculated from three independent experiments using […] PRISM software.

The target in experiment [3] is β5 (chymotrypsin-like site) of proteasome in HEK-293T cells (Homo sapiens, UniProt P20618+P28074). The experiment can be described thus: Competition assay in living HEK-293T cells with activity-based probe. To be noted: HEK-293 cells treated 4 hours, >50 inhibition between 10 and 50% at 50 μM, read-out: IC50 for sites: Chym-L. In kind it is cell-based. The protocol:
as §1, with “BODIPY-TMR-epoxomicin.” for “BODIPY-TMR-epoxomicin. Subsequently, the medium was removed and the cells were washed with PBS and harvested.”, “PRISM software.” left out
Human embryonic kidney cells (some 1×10^6) were cultured in 6-well plates in DMEM containing 10% fetal calf serum, 10 units/mL penicillin and 10 μg/mL streptomycin in a 7% CO2 humidified incubator at 37° C. overnight. […] The supernatant was collected and the protein concentration was determined by the Bradford assay. […]

Experiment [4] has as its target T2, caspase-like sites (β1) of proteasome in MM cells (Homo sapiens, UniProt P28072+Q99436).
T2 sequence (P28072 35-239): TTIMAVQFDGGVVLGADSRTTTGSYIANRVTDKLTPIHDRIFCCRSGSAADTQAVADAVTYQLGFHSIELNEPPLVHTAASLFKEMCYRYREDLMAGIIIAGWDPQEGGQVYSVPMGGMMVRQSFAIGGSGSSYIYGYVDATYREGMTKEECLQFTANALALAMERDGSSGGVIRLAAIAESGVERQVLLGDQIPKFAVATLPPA
T2 sequence (Q99436 44-277): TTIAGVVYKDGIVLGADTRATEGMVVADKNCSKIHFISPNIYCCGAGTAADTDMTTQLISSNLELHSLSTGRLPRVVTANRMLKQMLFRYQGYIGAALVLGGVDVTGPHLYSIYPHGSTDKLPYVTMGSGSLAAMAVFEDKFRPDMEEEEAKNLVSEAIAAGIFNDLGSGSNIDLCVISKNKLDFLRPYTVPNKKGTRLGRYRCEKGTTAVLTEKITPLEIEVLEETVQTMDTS
The experiment is described as follows: PROTEASOMEGLO assay of proteasome inhibition in MM cells. The format is cell-based. Conditions: read-out: IC50 for sites: Casp-L; NCI-H929 cells, 6 hours; >>30 no inhibition at 30 μM, >30 inhibition 10-50% at 30 μM.

[5] abbreviates: NCI-H929 cells, 6 hours, >>30 no inhibition at 30 μM, >30 inhibition 10-50% at 30 μM.

pIC50: −log10 of the molar value. Several values for one entry are separate records, joined by “and”; a condition that tells them apart may be missing. Equal values may be shown once. Where a name gives a salt, the structure may show the parent alone. Read-outs that look alike come from different tables or passages of the source.

For `CC(C)C[C@H](NC(=O)[C@H](Cc1ccccc1)N=[N+]=[N-])C(=O)N[C@@H](CC(C)C)C(=O)N[C@H](/C=C/S(C)(=O)=O)Cc1ccc(CN)cc1` [Compound 4a, N3Phe-Leu-Leu-Phe (4-CH2NH2) VS], the pIC50 in experiment [1] is 4.80.

In the case of `Cc1c(O)cccc1C(=O)N[C@H](C(=O)N[C@@H](CO)C(=O)N[C@H](/C=C/S(C)(=O)=O)Cc1ccc(CN)cc1)C(C)C` [Compound 48, HMB-Val-Ser-Phe (4-CH2NH2)-VS], the pIC50 in experiment [2] (setting [5]) was 4.89; in experiment [2] (RPMI-8226 cells, 6 hours, >>30 no inhibition at 30 μM, >30 inhibition 10-50% at 30 μM) it was 4.82.

Take `CC(C)C[C@H](NC(=O)[C@H](Cc1ccncc1)NC(=O)[C@H](Cc1ccccc1)N=[N+]=[N-])C(=O)N[C@H](/C=C/S(C)(=O)=O)Cc1ccc(CN)cc1` [Compound 50, N3-Phe-Ala (4-pyridine)-Leu-Phe (4-CH2NH2-TFA)-VS]: the pIC50 in experiment [3] is less than 4.30; in experiment [4], less than 4.52; in experiment [2] (setting [5]), 4.98.

Regarding `CC(C)C[C@H](NC(=O)[C@H](Cc1ccc(N)cc1)NC(=O)[C@H](Cc1ccccc1)N=[N+]=[N-])C(=O)N[C@H](/C=C/S(C)(=O)=O)Cc1ccc(CN)cc1` [Compound 51, N3-Phe-Phe (4-NH2. TFA)-Leu-Phe (4-CH2NH2.TFA)-VS], the pIC50 in experiment [2] was 5.44 and 5.14.
